# Source: US20240009143A1, “EXTRACTION OF SHIKONIN FROM ARNEBIA DECUMBENS ROOTS AND USE OF SHIKONIN DERIVATIVES FOR TREATING ULCERS” (KUWAIT UNIVERSITY, priority 2022, published 2024)
# Experiment: Absorbance of UVA & UVB
# Type: physicochemical
substance,measurement,value
shikonin-isovalerate [compound C],change of absorbance of UVA & UVB compared with shikonin (Fraction E),decreased
